Ki and Inhibition ratio data for 4 molecules are collected here from patent publication US11576897B2, “Therapeutic agent for non-motor symptoms associated with Parkinson's disease” (priority 2017, dated 2023).

Marks after values point to notes of the source that are not given here.

Assay [1] addresses human 5-HT2A receptor (Homo sapiens (Human), UniProt P28223). To be noted: read-out: 5-HT2A receptor binding inhibition constant Ki.
Assay [2] deals with serotonin 5-HT2A receptor (Rattus norvegicus (Rat), UniProt P14842). Briefly: Rat tryptamine-induced forelimb clonic convulsion model. In kind it is in vivo. To be noted: orally or subcutaneously 60 minutes before tryptamine 25 mg/kg intravenously, SD-male rats.

Usually Ki stands for the equilibrium dissociation constant of an inhibitor or competing ligand from its target. For `CNCc1cc(OCc2cc(Cl)ccc2F)n(CC2CC2)n1` [Example 131, 1-{5-[(5-chloro-2-fluorobenzyl)oxy]-1-(cyclopropylmethyl)-1H-pyrazol-3-yl}-N-methylmethanamine], the inhibitory constant (Ki) in assay [1] stood at 3 nM.

`CNCc1cc(OCc2cc(F)ccc2F)n(CC(C)(C)C)n1` [Example 258, 1-{5-[(2,5-difluorobenzyl)oxy]-1-(2,2-dimethylpropyl)-1H-pyrazol-3-yl}-N-methylmethanamine]: the Ki in assay [1] amounted to 7.5 nM.

As for `CNCc1cc(OCc2cc(F)ccc2F)n(CCC(C)C)n1` [Example 269, 1-{5-[(2,5-difluorobenzyl)oxy]-1-(3-methylbutyl)-1H-pyrazol-3-yl}-N-methylmethanamine], the Ki in assay [1] came to 1.5 nM.

Consider `CNCc1cc(OCc2cc(F)ccc2F)n(CCC(C)(C)C)n1.O=C(O)CC(O)(CC(=O)O)C(=O)O` [Example 502, 1-{5-[(2,5-Difluorobenzyl)oxy]-1-(3,3-dimethylbutyl)-1H-pyrazol-3-yl}-N-methylmethanamine Monocitrate], for which the Inhibition ratio worked out at 45%* in assay [2] (dose 10 mg/kg), 65%** in assay [2] (dose 20 mg/kg) and 84%** in assay [2] (dose 30 mg/kg).
